Key:
SK-BR-3 cells = experiment: FACS binding of microbeads (Biomag™ particles, F-Beads) carrying anti-HER2 and LPS to SK-BR-3 cells; design: species or system human; conditions: FACS density blots; for fluorescent cell beads complexes in upper right (ur) quadrant: F-Beads 2 μm
Description: Samples were fluorescently stained with goat anti human Fc-FITC Ab's. 1 (black-filled red histogram): cells incubated with uncoated Biomag™; 2 (black histogram): cells incubated with Biomag™ bound to Biot-anti-HER2 Ab's; 3 (dark blue histogram): cells incubated with Biomag™ bound to 75% Biot-anti-HER2 Ab's and 25% Biot-LPS; 4 (purple histogram): cells incubated with Biomag™ bound to 50% Biot-anti-HER2 Ab's and 50% Biot-LPS; 5 (green histogram): cells incubated with Biomag™ bound to 25% Biot-anti-HER2 Ab's and 75% Biot-LPS; and 6 (light blue histogram): cells incubated with Biomag™ bound to Biot-LPS. […] No significant differences in fluorescence were shown between the samples containing Ab's at various ratios with LPS. […] Samples were fluorescently stained with goat anti-human Fc-FITC Ab's. SK-BR-3 cells were incubated with Biomag™ carrying: […] (B) Biot-anti-HER2 Ab's (Y-Mean 87.8); (C) 25% Biot-anti-HER2 and 75% Biot-LPS (Y-Mean 41.8); (D) 75% Biot-anti-HER2 Ab's and 25% Biot-LPS (Y-Mean 100.8); (E) 50% Biot-anti-HER2 Ab's and 50% Biot-LPS (Y-Mean 70.3); and (F) Unbound Biomag™ (Y-Mean 4.8). […] No significant differences in fluorescence were shown between the samples containing Ab's. […] Blots divided to quadrants, fluorescent cell beads complexes are shown in the upper right quadrant. SK-BR-3 cells were incubated with F-Beads carrying: (A) No beads, negative control (upper right (ur) 0.1%); (B) Cells incubated with soluble anti-HER2 stained with Goat anti human Fc-FITC Ab's, positive control (ur 96.9%); (C) Uncoated, empty beads (1) (ur 1.7%); […] (F) Biot-anti HER2, Anti HER2 beads (4) (ur 54.5%); […] Samples were fluorescently stained with goat anti human Fc-FITC Abs and examined by FACS.

[1] = tested on: SK-BR-3 human breast cancer cells expressing HER2; experiment: FACS binding of biotinylated anti-HER2 mAb to SK-BR-3 cells; conditions: stained with streptavidin-FITC
Description: Monoclonal anti-HER2 Ab's were chemically conjugated to biotin. Biot-anti-HER2 were incubated with SK-BR-3 cells that were stained with streptavidin-FITC (STAVF). Incubated samples were then read by FACS. In the figure: 1 (black-filled red histogram): negative control (nc)—cells incubated only with STAVF; 2 (blue histogram): positive control (pc)—cells incubated with anti-HER2 Ab's stained with goat anti human Fc-FITC Ab's; 3 (black histogram): cells incubated with Biot-anti-HER2 Ab's and stained by STAVF; and 4 (green histogram): cells incubated with Biot not relevant Ab's and stained by STAVF.
Monoclonal anti-HER2 antibody (anti-HER2, Herceptin) was biotinylated using the Sulfo-NHS-LC-Biotin kit (Pierce) according to the manufacturer's instructions. Biotinylation rate was determined by HABA test (Acros, USA) according to the manufacturer's instructions. The ability of the biotinylated mAb (Biot-anti-HER2) to detect HER2 was examined by incubation with target cells (SK-BR-3 human breast cancer cells expressing HER2, ATCC) that were stained with STAVF (streptavidin-FITC, Jackson ImmunoResearch). Incubated samples were then examined using Flow Cytometry (FACS).

Substance | fluorescent cell beads complexes in upper right (ur) quadrant (SK-BR-3 cells) [%] | also measured
Anti HER2 beads: avidin-coated fluorescent polystyrene beads 2 μm (F-Beads) carrying Biot-anti HER2 | 54.5 | –
Biomag™ carrying Biot-anti-HER2 Ab's: avidin-coated approx. 1.5 μm Biomag™ iron oxide particles bound to biotinylated anti-HER2 antibody (Herceptin) | – | Y-Mean (SK-BR-3 cells; Biomag™ particles, stained with goat anti-human Fc-FITC Ab's): 87.8
Biot-anti HER2: monoclonal anti-HER2 antibody (Herceptin) biotinylated with Sulfo-NHS-LC-Biotin | – | binding to SK-BR-3 cells (HER2 positive) [1]: binding
Trastuzumab [soluble anti-HER2, reference compound] | 96.9 | –
